These are literature values, as cited in article PMC5558795 (Antiviral research, 2017).

Protein sequences, listed by entry. Tags and fused reporters are not part of them. Residues count along the entry.
UniProt Q9Q6P4, 1506-1683: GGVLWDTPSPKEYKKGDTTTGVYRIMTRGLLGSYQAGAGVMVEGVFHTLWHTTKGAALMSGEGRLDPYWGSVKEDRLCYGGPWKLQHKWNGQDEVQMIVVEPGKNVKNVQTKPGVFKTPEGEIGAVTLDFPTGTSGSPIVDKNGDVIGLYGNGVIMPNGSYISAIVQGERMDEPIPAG
UniProt Q9Q6P4, 1428-1467: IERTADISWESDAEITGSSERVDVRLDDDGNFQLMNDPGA

The term IC50 denotes the midpoint of a concentration-inhibition curve.

The data set concerns the target WNV NS2B-NS3pro (West Nile virus, UniProt Q9Q6P4). The settings on record: read-out: IC50, WNV NS2B-NS3pro; ref Shiryaev et al., 2006; cited from earlier work.

On to aprotinin, for which the IC50 was 20 nM.
